These results are taken from patent EP0032748B1, “Thiophene derivatives” (UBE INDUSTRIES, LTD., priority 1980, dated 1981).

Data set [1] relates to cucumber (variety: Sagami Hanjiro). In words: Test Example 7: degree of phytotoxicity on cucumber (injury rating). It is filed as in vivo. The conditions noted are these: concentration of spray liquid 200 ppm. From the text: (§1) On the following day, the seedlings were inoculated by atomizing technique with a spore suspension of cucumber powdery mildew fungus (Erysiphe cicholrcearum).

The subject of data set [2] is cucumber powdery mildew fungus (Erysiphe cicholrcearum). As to the kind of experiment: Test Example 7: control effect on cucumber powdery mildew (spray on seedlings). It is filed as in vivo. The following applies: concentration of spray liquid 200 ppm, ten days after the inoculation.
Source text: as §1

The test system of a further data set is Pellicularia sasakii. Type of data set: in vivo. The following applies: Table 4, spray liquid 500 ppm, paddy rice sheath blight.
A further data set concerns paddy rice. The following applies: Table 4, spray liquid 500 ppm.

On to `CCOC(=O)c1sc(C(=O)OCC)c(OC(=O)c2ccco2)c1OC(=O)c1ccco1` [Compound No. 296, 3,4-Di-(2'-furoyloxy)-2,5-dicarbethoxythiophene], for which the Degree of phytotoxicity (in data set [1]; with paddy rice) was 0 each time. Moreover, in data set [2], the “Control value (%)” value came out at 100%. In the data set on Pellicularia sasakii, the Control value worked out at 83%.
